Assay: In vitro stability of glutamine by incubation in 0.2 M phosphate buffer at pH 9.0
Assay type: physicochemical
Conditions: pH 9.0, 37° C.

Glutamic Acid/Glutamine Co-Polymer [Poly Glu/Gln]
Time for which glutamine was found to be stable: over 12 hours
